System: AMPK
Experiment: AMPK activation, cell based ELISA in Hep G2 cells
Description: AMPK Activation Protocol:
AMPK activation potential of the compounds was evaluated using cell based ELISA.
Hepatoma (Hep G2) liver cells were maintained in a T 75 culture flask-containing 25 mM DMEM+10% fetal calf serum. The cells were maintained in a T 75 culture flask-containing medium (DMEM+10% fetal calf serum). On reaching a confluence of 70 to 80%, the cells were seeded in a 96 well plate at a density of 40,000 cells per well in 25 mM DMEM+10% FCS medium. The plates were then incubated at 37° C. with 5% CO2 for 24 hours. […] The cells were incubated with 1:1000 dilution primary antibody (Phospho-AMPKα (Thr172) Rabbit mAb, CellSignaling in PBS-T containing 5% BSA at 4° C. overnight. The cells were then washed three times with PBS-T for 5 minutes and incubated with 1:1000 dilution secondary antibody (Anti-rabbit IgG, HRP-linked Antibody, Cell Signaling) in PBS-T with 1% BSA for 1 hour at RT. Cells were washed three times with PBS-T for 5 minutes The cells were incubated with 100 μl TMB substrate solution for 30 minutes and the reaction was stopped with 100 μl of 2N H2SO4. Then the plate was read at 450 nm using ELISA plate reader and absorbance recorded. % activity was calculated using DMSO control as 100%.

In the case of CC(O)C1CCC2C3CCC4=CC(=O)CC[C@]4(C)C3[C@@H](O)C[C@]12C (stereo partly drawn) [Compound 1032, (10R,11S,13S)-11-hydroxy-17-(1-hydroxyethyl)-10,13-dimethyl-1,2,6,7,8,9,10,11,12,13,14,15,16,17-tetradecahydro-3H-cyclopenta[a]phenanthren-3-one], the “% activation pAMPK at 1 nM” value is reported as 105%.

For CC(=O)[C@H]1CCC2C3CCC4CC(=O)CC[C@]4(C)C3[C@@H](O)C[C@@]21C (stereo partly drawn) [Compound 1026, (10S,11S,13S,17S)-17-acetyl-11-hydroxy-10,13-dimethylhexadecahydro-3H-cyclopenta[a]phenanthren-3-one], the “% activation pAMPK at 1 nM” value was 110%.
